Laboratory results published in patent US5849691A, “Peptidomimetic inhibitors of cathepsin D and plasmepsins I and II” (The United States of America as represented by the …, priority 1996, dated 1998).

Amino acid sequences for entries named in this document (tags omitted). Residues count along the entry.
UniProt P07339, 65-412 limits assumed: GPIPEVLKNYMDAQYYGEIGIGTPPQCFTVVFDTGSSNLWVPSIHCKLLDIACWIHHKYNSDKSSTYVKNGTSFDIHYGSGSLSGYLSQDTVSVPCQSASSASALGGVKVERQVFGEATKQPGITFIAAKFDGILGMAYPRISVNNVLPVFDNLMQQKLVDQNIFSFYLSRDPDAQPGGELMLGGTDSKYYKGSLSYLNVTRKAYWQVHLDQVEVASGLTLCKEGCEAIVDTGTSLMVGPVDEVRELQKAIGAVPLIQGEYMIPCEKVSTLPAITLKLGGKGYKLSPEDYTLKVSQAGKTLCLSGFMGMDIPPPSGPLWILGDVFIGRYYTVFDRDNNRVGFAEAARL

Molecular target: cathepsin D (Homo sapiens, UniProt P07339)
Assay: cathepsin D inhibition assay with fluorogenic substrate (tight-binding kinetics)
Format: biochemical
Details: target named only in b168/b175 (cathepsin D), elsewhere implied

| Compound | Ki |
| --- | --- |
| CC(C)[C@@H]1NC(=O)C[C@H](O)[C@H](Cc2ccccc2)NC(=O)CCCCCCCCCCCNC1=O | 4 nM |
| C[C@@H]1NC(=O)C[C@H](O)[C@H](Cc2ccccc2)NC(=O)CCCCCCCCCCNC1=O | 140 nM |
| CC(C)[C@@H]1NC(=O)C[C@H](O)[C@H](CC2CCCCC2)NC(=O)CCCCCCCCCCCNC1=O | 10 nM |
| O=C1C[C@H](O)[C@H](Cc2ccccc2)NC(=O)CCCCCCCCCCCNC(=O)[C@H](C2CCCCC2)N1 | 85 nM |
| O=C1C[C@H](O)[C@H](Cc2ccccc2)NC(=O)CCCCCCCCCCCNC(=O)[C@H](Cc2ccccc2)N1 | 21 nM |
| CC(C)[C@@H]1NC(=O)C[C@H](O)[C@H](Cc2ccccc2)NC(=O)OCCCCCCCCCCCNC1=O | 3.6 nM |

More lines, in order of falling Ki, values ahead:

| Ki | Compound |
| --- | --- |
| 45 nM | CC(C)[C@@H]1NC(=O)C[C@H](O)[C@H](Cc2ccccc2)NC(=O)NCCCCCCCCCCCNC1=O |
| 22 nM | CCC(C)[C@@H]1NC(=O)C[C@H](O)[C@H](Cc2ccccc2)NC(=O)CCCCCCCCCCCNC1=O (stereo partly drawn) |
| 20 nM | CC(C)[C@@H]1NC(=O)C[C@H](O)[C@H](Cc2ccccc2)NC(=O)CCCCCCCCCCNC1=O |
